These are literature values, as cited in paper PMC10892093 (Pharmaceutics, 2024).

Where two headings read alike, the source gives them in different places.

The conditions of this series: in vivo, cited from earlier work.

With `O=C1Nc2ccc(Cl)cc2C(c2ccccc2)=NC1O` (centres unmarked) [oxazepam, Oxazepam], the S-/R-oxazepam glucuronide ratio was 3.5 (plasma) and 3.9 (urine).
